pIC50: −log10 of the molar value. A value given as a limit tells only on which side of the number the result lay.

As usually defined, the pIC50 is the IC50 on a negative log10 scale, so that one unit is a factor of ten. Low readings indicate a high IC50, high ones a low IC50.

This assay concerns the target Dipeptidyl peptidase 2 (Homo sapiens, UniProt Q9UHL4). Nature of the assay: Inhibition of DPP2 in human seminal plasma using Lys-Ala-p-nitroanilide as substrate incubated for 15 mins prior to substrate addition.

In turn, `N#C[C@@H]1CCCN1C(=O)CNC(=O)c1cccc2cnccc12` showed a pIC50 of less than 4.00.

The values above are taken from ChEMBL document CHEMBL2385017, “Selective Inhibitors of Fibroblast Activation Protein (FAP) with a (4-Quinolinoyl)-glycyl-2-cyanopyrrolidine Scaffold” (ACS Med Chem Lett, 2013).
